This passage reports IC50 results from patent US7572809B2, “Isoquinoline aminopyrazole derivatives” (Hoffmann-La Roche Inc., priority 2005, dated 2009).

The chains behind the UniProt entries cited, without tags or fusion partners.
UniProt O14965, whole entry: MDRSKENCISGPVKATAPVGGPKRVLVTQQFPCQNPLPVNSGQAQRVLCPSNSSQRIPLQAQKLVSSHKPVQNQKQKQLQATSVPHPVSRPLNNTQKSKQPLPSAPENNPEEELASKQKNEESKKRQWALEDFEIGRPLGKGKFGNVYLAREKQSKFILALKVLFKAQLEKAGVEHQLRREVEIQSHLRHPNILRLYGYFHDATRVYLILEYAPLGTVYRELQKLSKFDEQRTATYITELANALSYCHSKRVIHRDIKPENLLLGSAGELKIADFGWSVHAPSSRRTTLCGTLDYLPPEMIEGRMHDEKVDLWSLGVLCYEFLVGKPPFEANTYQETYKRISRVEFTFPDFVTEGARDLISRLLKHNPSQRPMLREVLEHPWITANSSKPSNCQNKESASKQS

The assay addresses Aurora A kinase (Homo sapiens, UniProt O14965). Kind of assay: IC50 determination for inhibitors of Aurora A kinase (ELISA, GST-Histone H3 substrate). The note with it: read-out: IC50 Aurora A kinase inhibition; mutant Aurora A kinase, 30 μM ATP, 40 minutes. As for the experimental part:
IC50 Determination for Inhibitors of Aurora A Kinase
Aurora A is a Serine Threonine Kinase Involved in Spindle Assembly and Chromosome Segregation.
The assay is a typically ELISA-type assay where substrate (GST-Histone H3) is coupled to the assay-plate and is phosphorylated by the kinase. Phosphorylation is detected by a mouse anti-Phosphopeptid mAb and an HRP-labeled anti-mouse pAb. The assay is validated for IC50-determination.
Kinase activities were measured by Enzyme-Linked Immunosorbent Assay (ELISA): Maxisorp 384-well plates (Nunc) were coated with recombinant fusion protein comprising residues 1-15 of HistoneH3 fused to the N-terminus of Glutathione-S-Transferase. Plates were then blocked with a solution of 1 mg/mL I-block (Tropix cat# T2015—highly purified form of casein) in phosphate-buffered saline. […] After washing, substrate phosphorylation was detected by addition of anti-phospho-Histone H3 (Ser 10) 6G3 mAb (Cell Signaling cat #9706) and sheep anti-mouse pAb-HRP (Amersham cat# NA931V), followed by colorimetric development with TMB (3,3′,5,5′-tetramethylbenzidine from Kirkegaard & Perry Laboratories). After readout of the absorbance, IC50 values were calculated using a non-linear curve fit (XLfit® software (ID Business Solution Ltd., Guilford, Surrey, UK)).
Background: An ELISA detects its analyte on a solid surface through an enzyme-linked reagent.

Molecules are shown by their SMILES.

With `Fc1cccc(-c2nc(Nc3cc[nH]n3)cc3ccccc23)c1`, the IC50 is 615 nM.

What is called IC50 is the point on the concentration scale where inhibition reaches its midpoint.
